From US3989746A, “Substituted naphthyl anthranilic acids” (Ikeda Mohando Co., Ltd., priority 1972, dated 1976)

Assays:
[1] = in vivo; details: mouse, po
Experimental: With respect to the foregoing test compounds, the acute toxicity was examined by employing mice according to the following method.
Groups of male mice of the dd type having a body weight of 18 to 22 g, each, group consisting of 5 mice, were tested to determine the acute toxicity. The test compound was orally administered in a dosage indicated in Table 3a in the form suspended in 5% gum arabic liquor. The determination was conducted 7 days after the administration. Further, the LD50 values were calculated according to the method of Lichfield-Wilcoxon.

[2] = in vivo; details: rat, po

Question: For `Cc1cccc(Nc2ccccc2C(=O)O)c1C` [Compound M, mefenamic acid, reference compound], which LD50 at 168 h [1] is on record?
Answer: 1050 mg/kg

Question: What about the LD50 [2] of the same molecule?
Answer: 730 mg/kg
